# From patent US20130040405A1, “METHODS FOR SENSITIVE AND RAPID DETECTION OF MOLECULES” (published 2013)
# System: anti-TNT monoclonal antibody (A1.1.1)
# Experiment: ELISA measurement of anti-TNT antibody displacement from TNB-ovalbumin by TNT and TNT analogs
# Details: displacement of antibody A1.1.1 from immobilized TNB-ovalbumin
smiles,measurement,value
Cc1c(N)cc([N+](=O)[O-])cc1[N+](=O)[O-],Concentration upon 50% of antibody displacement,0.94 µg/mL
